Test results reported in patent publication EP4678648A1, “SYNTHESIS METHOD OF ANTIBODY-DRUG CONJUGATES USING PROXIMITY EFFECT-BASED SITE-SELECTIVE ANTIBODY LABELING” (Sogang University Research Business Development Foundation, priority 2023, dated 2024).

Columns and labels:
MDA-MB-231 = assay: Anti-proliferation assay (CellTiter-Glo, 72 hours); format: cell-based; details: MDA-MB-231 (HER2-negative), read-out: GI50s
Description: (§1) MDA-MB-231, MDA-MB-453, and SK-BR-3 were purchased from KCLB (Seoul, Korea). Cells were cultured in RPMI 1640 supplemented with 10% (v/v) fetal bovine serum (FBS) and 1% (v/v) penicillin/streptomycin (Welgene, Korea) and incubated at 37°C in a humidified 5% CO2 incubator.
(§2) Cells were seeded in 96-well plates at a density of 3,000 cells per well. After cell attachment, cells were treated with ADC serially diluted four-fold in PBS. After incubation at 37°C for 72 hours, cell viability was measured using CellTiter-Glo (G7572, Promega, Madison, WI, USA). Fitter dose-response curves and GI50 values were obtained using GraphPad Prism 6.0 software, and all experiments were conducted in duplicate.
(§3) To evaluate the cytotoxicity of the synthesized ADC, cell viability assays were conducted using breast cancer cell lines. Three cell lines were used, including two HER2-positive cell lines (SK-BR-3: high; MDA-MB-453: low) and one HER2-negative cell line (MDA-MB-231). The cells were treated with trastuzumab-(VC-PABC-MMAE)2, and trastuzumab WT and Kadcyla were also tested for comparison.

MDA-MB-453 = assay: Anti-proliferation assay (CellTiter-Glo, 72 hours); format: cell-based; details: MDA-MB-453 (HER2 low), read-out: GI50s
Description: as §1, §2, §3

## Kadcyla: tested for comparison with the synthesized ADC
MDA-MB-231
  IC50: > 10 nM
MDA-MB-453
  IC50: > 10 nM
